{
  "source": "patent US20260033491A1",
  "about": "“FUNGAL SPORE FORMULATIONS INCLUDING CARRIER FLUIDS” (priority 2018, published 2026)",
  "assay_type_in_all_cases": "cell-based",
  "key": {"[1]": {"test_system": "Purpureocillium lilacinum spores", "assay": "Spore viability (germination rate) of Purpureocillium lilacinum spores dispersed in fluid and stored at 30° C.", "method": "(§1) 3 g of Purpureocillium lilacinum pure spore powder were transferred into a formulation vessel (IKA Type DT-20 mixing vessel with dispersion tool for Ultra Turrax) using a sterile spoon. 12 mL of fluid were added into the respective formulation vessel and dispersed using ultra turrax tube drive control for 1 min at 3000 rpm; change direction after 30 sec. After this 2.8 mL were transferred in four sample bottles (Wheaton Serum vial, Type I) leaving little headspace and closed tight using crimpneck caps (Macherey—Nagel type N 13). Afterwards all sample bottles were transferred to an incubator set at 30° C. and stored for a given time.\n(§2) In regular intervals a sample was retrieved from the storage location and analyzed for spore viability. For this purpose, the original samples were thoroughly homogenized. Aliquots of 0.25 g or 250 μL of each sample were transferred into 50 mL falcon tubes. The tubes were filled up to 25 g using a sterile aqueous solution containing 2% Tween 80 and homogenized by vortexing to achieve the first dilution step (1:100 dilution). This dilution was used for further dilution and spotting on agar.\n(§3) Not all samples mixed well or mixed at all in 2% Tween 80. For these samples, an alternative dispersion/dilution method was applied where the oil phase was stripped from the spores first: 0.25 g or 250 μL of sample are weighted into a 2 mL Eppendorf tube, and 0.5 mL of 2% Tween 80 is added, and the mixture is transferred into an Eppendorf centrifuge where it is centrifuged for 1 min at 10.000 rpm. The supernatant (=upper oily phase) is discarded by using a pipette. Afterwards 250 μL of Breakthru S 240 were added and the spores were well dispersed. 250 μL or 0.25 g of each sample were transferred into a sterile 50 mL Falcon tube. […]\nFor evaluation of spore germination rate prepare a 1:30000 dilution based on the 1:100 dilution achieved by multiple automated dilution (pipetting robot, 96 well plate). […] At least 200 spores per sample need to be evaluated. […]"}, "[2]": {"test_system": "Penicillium bilaii spores", "assay": "Spore viability (germination rate) of Penicillium bilaii spores dispersed in fluid and stored at 30° C.", "method": "as §1, with “1.5 g” for “3 g”, “of Penicillium bilaii” for “of Purpureocillium lilacinum”, “spoon. 13.5” for “spoon. 12”, “N 13)” for “N 13).”\nas §2, with “viability. Therefore” for “viability. For this purpose,”, “sample are” for “sample were”\nas §3, with “phase is” for “phase was”, “240 are” for “240 were”, “spores are” for “spores were”, “sample are” for “sample were”\n(§4) For evaluation of spore germination rate prepare a 1:15000 dilution based on the 1:100 dilution achieved by multiple automated dilution (pipetting robot, 96 well plate). […] At least 200 spores per sample need to be evaluated. […]"}, "[3]": {"test_system": "Beauveria bassiana spores", "assay": "Spore viability (germination rate) of Beauveria bassiana spores dispersed in fluid and stored at 30° C.", "method": "as §1, with “1.5 g” for “3 g”, “of Beauveria bassiana” for “of Purpureocillium lilacinum”, “spoon. 13.5” for “spoon. 12”, “N 13)” for “N 13).”\nas §2, with “viability. Therefore” for “viability. For this purpose,”, “sample are” for “sample were”\nNot all samples mixed well or mixed at all in 2% Tween 80. […]\nas §4"}},
  "data": [
    {"substance": "Neopentylglycol dicocoate [Radialube 7302]", "values": [
      {"measurement": "spore viability [%] after 3 m (87-92 d)", "setting": "[1]", "value": 83.1, "unit": "%"},
      {"measurement": "spore viability [%] after 5-6 w (35-40 d)", "setting": "[1]", "value": 94.7, "unit": "%"},
      {"measurement": "spore viability [%] at day 1", "setting": "[1]", "value": 99.1, "unit": "%"},
      {"measurement": "spore viability [%] 3 m@30° C. (83-85 d)", "setting": "[2]", "value": 70.2, "unit": "%"},
      {"measurement": "spore viability [%] 6 w@30° C. (41-43 d)", "setting": "[2]", "value": 86.1, "unit": "%"},
      {"measurement": "spore viability [%] initial (1-2 d)", "setting": "[2]", "value": 94.5, "unit": "%"},
      {"measurement": "spore viability [%] after 2 w (14 d)", "setting": "[3]", "value": 68.4, "unit": "%"},
      {"measurement": "spore viability [%] at day 1", "setting": "[3]", "value": 84.2, "unit": "%"}
    ]}
  ]
}
